Antibody variant affinities, Ab-14 heavy chain, assay 1

Values reported by Engelhart et al. 2022, doi:10.1038/s41597-022-01779-4 (FLAb copy).

Antigen: PDVDLGDISGINAS, a 14-residue peptide of the SARS-CoV-2 spike HR2 region.

Each scFv is VH, three GGGGS repeats, VL, as in the parent Ab-14, and differs from it in the CDRs of the heavy chain only.
VH: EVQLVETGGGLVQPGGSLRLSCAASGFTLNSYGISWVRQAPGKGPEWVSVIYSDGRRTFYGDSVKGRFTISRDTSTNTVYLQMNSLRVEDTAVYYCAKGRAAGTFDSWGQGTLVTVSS
VL: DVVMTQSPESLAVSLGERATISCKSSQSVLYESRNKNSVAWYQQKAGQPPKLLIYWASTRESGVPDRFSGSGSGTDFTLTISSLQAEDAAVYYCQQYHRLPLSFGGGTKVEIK

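Phage display of a naive human antibody library on the peptide gave the parent. Variants in AAYL49 differ from the parent at up to three CDR positions; double and triple changes were sampled at random. In AlphaSeq, yeast of one mating type display the scFv and yeast of the other type display the target. The frequency of each diploid, read from paired DNA barcodes, reflects how well the two displayed proteins bind. The ratio of observed to expected reads was calibrated, replicate by replicate, on BCL2-family standards whose Kd was known from biolayer interferometry. The assay was run in three technical replicates.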

Sequences are complete VH domains.
The read-out is the apparent dissociation constant on a log10 scale (nM): the lower, the stronger.
A pair that was not seen in that replicate is written "n.d."; this usually means weak binding, but a binder can also be missed.

| # | VH | log10 Kd, replicates | signal with controls |
|---|---|---|---|
| 1 | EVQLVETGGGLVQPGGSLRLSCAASGFTLNSYGISWVRQAPGKGPEWVSVIYSSFRRTFYGDSVKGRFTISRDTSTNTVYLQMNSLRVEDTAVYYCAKGRAYGTFDSWGQGTLVTVSS | 4.60 / n.d. / n.d. | 2 of 9 (4.54) |
| 2 | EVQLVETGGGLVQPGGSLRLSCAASMFTLNSYGISWVRQAPGKGPEWVSVIYSDGRRTFYGDSLKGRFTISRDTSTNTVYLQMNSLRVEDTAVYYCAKGRAAGTFDSWGQGTLVTVSS | n.d. / n.d. / n.d. | 1 of 9 (4.81) |
| 3 | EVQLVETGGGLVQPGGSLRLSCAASGFTLNSYGISWVRQAPGKGPEWVSVIYSDGENTFYGDSVKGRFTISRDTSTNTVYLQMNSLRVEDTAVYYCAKGRAAGPFDSWGQGTLVTVSS | n.d. / n.d. / n.d. | 0 of 9 |
| 4 | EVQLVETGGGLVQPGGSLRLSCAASGFGLNSYGISWVRQAPGKGPEWVSVIYSDGRRRFYGDSVKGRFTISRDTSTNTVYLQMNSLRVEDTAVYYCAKGRAPGTFDSWGQGTLVTVSS | 1.98 / 2.30 / 2.33 | 1 of 9 (4.22) |
| 5 | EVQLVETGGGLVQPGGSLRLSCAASGFTLNSYGISWVRQAPGKGPEWVSVIPSDGRRTFYGDSVKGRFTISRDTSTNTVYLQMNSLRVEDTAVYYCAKGRADGHFDSWGQGTLVTVSS | n.d. / n.d. / n.d. | 1 of 9 (3.29) |
| 6 | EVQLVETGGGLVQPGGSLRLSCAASGDTLNSYGESWVRQAPGKGPEWVSVIYSDGRRTFYMDSVKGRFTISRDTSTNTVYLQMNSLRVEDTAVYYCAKGRAAGTFDSWGQGTLVTVSS | n.d. / n.d. / n.d. | 0 of 9 |
| 7 | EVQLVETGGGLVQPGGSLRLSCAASCFTLNSSGWSWVRQAPGKGPEWVSVIYSDGRRTFYGDSVKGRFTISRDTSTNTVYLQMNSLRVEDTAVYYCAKGRAAGTFDSWGQGTLVTVSS | 4.58 / 3.50 / n.d. | 7 of 9 (4.43) |
| 8 | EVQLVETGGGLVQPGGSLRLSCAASGFTLNSYGISWVRQAPGKGPEWVSVIYSAGRRCFYYDSVKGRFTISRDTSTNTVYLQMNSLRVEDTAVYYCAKGRAAGTFDSWGQGTLVTVSS | n.d. / n.d. / n.d. | 0 of 9 |
| 9 | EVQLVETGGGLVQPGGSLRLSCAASGFTLNSYGIGWVRQAPGKGPEWVSVIYSDGRCTFYGDSKKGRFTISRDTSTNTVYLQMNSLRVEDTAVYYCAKGRAAGTFDSWGQGTLVTVSS | n.d. / n.d. / n.d. | 0 of 9 |
| 10 | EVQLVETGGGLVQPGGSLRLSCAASGFTLNSYGISWVRQAPGKGPEWVSVIYSDGRRTFYGDSVKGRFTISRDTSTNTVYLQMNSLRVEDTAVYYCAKGRAFGTFDNWGQGTLVTVSS | 2.51 / 2.28 / 2.80 | 2 of 9 (4.15) |
| 11 | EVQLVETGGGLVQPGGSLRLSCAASGFALNQYGISWVRQAPGKGPEWVSVIYSDGRRQFYGDSVKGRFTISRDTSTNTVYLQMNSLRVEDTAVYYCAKGRAAGTFDSWGQGTLVTVSS | 0.68 / 0.88 / 0.88 | 2 of 9 (5.11) |
| 12 | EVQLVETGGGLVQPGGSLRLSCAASWFTLNSYGISWVRQAPGKGPEWVSVIYSKGRRTSYGDSVKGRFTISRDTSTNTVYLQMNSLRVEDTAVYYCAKGRAAGTFDSWGQGTLVTVSS | n.d. / n.d. / n.d. | 1 of 9 (3.53) |
| 13 | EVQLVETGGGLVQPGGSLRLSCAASGFTLNSYGISWVRQAPGKGPEWVSVIYSDTRRTFYGDSVKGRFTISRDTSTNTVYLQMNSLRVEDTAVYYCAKGRAAGTFEMWGQGTLVTVSS | n.d. / n.d. / n.d. | 0 of 9 |
| 14 | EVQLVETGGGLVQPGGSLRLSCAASGFTLNTYGISWVRQAPGKGPEWVSVIYSDGRRTQYGDSVKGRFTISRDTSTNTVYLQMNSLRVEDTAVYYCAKSRAAGTFDSWGQGTLVTVSS | 1.26 / 1.32 / 1.18 | 2 of 9 (4.57) |
| 15 | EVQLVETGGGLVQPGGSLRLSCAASGFTLNSYGISWVRQAPGKGPEWVSVIYSDGRRTFYGKSVKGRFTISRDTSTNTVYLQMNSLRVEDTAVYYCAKGRAAGRFYSWGQGTLVTVSS | n.d. / n.d. / n.d. | 0 of 9 |
| 16 | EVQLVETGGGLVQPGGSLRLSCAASGFTLNSYGISWVRQAPGKGPEWVSVIYSDGRPTFDGDSVKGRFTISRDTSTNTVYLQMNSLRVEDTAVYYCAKGRAAGYFDSWGQGTLVTVSS | n.d. / 3.84 / n.d. | 2 of 9 (4.23) |
| 17 | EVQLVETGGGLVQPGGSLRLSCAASGFTLNSYGISWVRQAPGKGPEWVSVIYSDGRRTWYGKSRKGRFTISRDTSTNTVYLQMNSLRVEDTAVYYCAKGRAAGTFDSWGQGTLVTVSS | 6.06 / 4.18 / 4.64 | 4 of 9 (4.34) |
| 18 | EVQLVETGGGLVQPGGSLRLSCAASGFTLNSYGISWVRQAPGKGPEWVSVIYSLGRNTFYGDSVKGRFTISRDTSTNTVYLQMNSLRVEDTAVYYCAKGGAAGTFDSWGQGTLVTVSS | 3.09 / n.d. / n.d. | 0 of 9 |
| 19 | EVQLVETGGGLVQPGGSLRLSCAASGFTVNSYGISWVRQAPGKGPEWVSVIYSDGRRTFYIDSVKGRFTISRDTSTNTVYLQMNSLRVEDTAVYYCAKGRAAGTIDSWGQGTLVTVSS | 2.26 / 2.37 / 2.34 | 1 of 9 (3.21) |

A selection of 2 entries from above:

| VH | log10 Kd, replicates | signal with controls |
|---|---|---|
| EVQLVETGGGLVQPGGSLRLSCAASGFTLNSYGIGWVRQAPGKGPEWVSVIYSDGRCTFYGDSKKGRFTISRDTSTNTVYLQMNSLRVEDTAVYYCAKGRAAGTFDSWGQGTLVTVSS | n.d. / n.d. / n.d. | 0 of 9 |
| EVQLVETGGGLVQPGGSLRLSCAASGFTLNSYGISWVRQAPGKGPEWVSVIYSDTRRTFYGDSVKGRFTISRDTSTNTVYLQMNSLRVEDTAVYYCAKGRAAGTFEMWGQGTLVTVSS | n.d. / n.d. / n.d. | 0 of 9 |

As a blank, each scFv also met three strains without target: over library AAYL49, 15% of these pairings were detected, typically at 4.06 and seldom below 2.83. The control count says in how many pairings with the empty strains this scFv gave a signal, with their mean in brackets.